In ChEMBL document CHEMBL3227947, “Quantitative structure-activity relationship of 5-(X-benzyl)-2,4-diaminopyrimidines inhibiting bovine liver dihydrofolate reductase” (J Med Chem, 1979) one finds log(1/I50) data, which are given here for 7 compounds.

The target of the assay is T1, Dihydrofolate reductase (Bos taurus) (UniProt P00376).
T1 sequence (whole entry): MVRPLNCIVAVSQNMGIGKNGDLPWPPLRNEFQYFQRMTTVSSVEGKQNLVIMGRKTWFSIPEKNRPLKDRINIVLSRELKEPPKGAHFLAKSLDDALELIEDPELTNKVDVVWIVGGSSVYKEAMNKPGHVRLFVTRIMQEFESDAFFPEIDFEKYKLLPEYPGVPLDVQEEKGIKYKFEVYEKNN

`Nc1ncc(Cc2ccc(Br)cc2)c(N)n1` yielded a log(1/I50) of 5.17. `CN(C)c1ccc(Cc2cnc(N)nc2N)cc1` gave a log(1/I50) of 4.76. For `Nc1ncc(Cc2ccc(F)cc2)c(N)n1` the value was 5.18. The same measure for `Nc1ncc(Cc2cccc(Br)c2)c(N)n1`: 5.54. For `COc1ccc(Cc2cnc(N)nc2N)cc1` the value was 4.92; for `Nc1ncc(Cc2ccc([N+](=O)[O-])cc2)c(N)n1`, 5.02; for `Nc1ncc(Cc2cccc(Cl)c2)c(N)n1`, 5.47.
